One test deals with HLA-A2. Format: binding, Human. Particulars: Table 9, peptides derived from not fragmented proteins; number of the five HLA-A2 alleles bound.
Compound `CC(C)C[C@H](NC(=O)CNC(=O)[C@H](Cc1c[nH]cn1)NC(=O)[C@H](CCCCN)NC(=O)[C@@H](NC(=O)[C@H](CC(C)C)NC(=O)[C@H](CCC(=O)O)NC(=O)[C@H](CC(N)=O)NC(=O)[C@H](CC(C)C)NC(=O)[C@@H](N)CC(N)=O)C(C)C)C(=O)O` [compound 233] gave an Alleles bound of 3.

Staying with this test, now noted: Table 11, peptides derived from apoptotic cell-associated proteins, pools 1-4; number of the five HLA-A2 alleles bound.
In the case of `CC(C)C[C@H](NC(=O)[C@H](CCCNC(=N)N)NC(=O)[C@H](CCC(=O)O)NC(=O)[C@H](CCC(=O)O)NC(=O)[C@H](CCC(=O)O)NC(=O)CNC(=O)[C@H](CCC(=O)O)NC(=O)[C@H](CC(C)C)NC(=O)[C@H](CC(C)C)NC(=O)[C@@H](N)CCCCN)C(=O)O`, the Alleles bound was 2.

Compound `CC[C@H](C)[C@H](NC(=O)[C@H](CCCCN)NC(=O)[C@H](CCSC)NC(=O)[C@@H](NC(=O)[C@H](CO)NC(=O)[C@@H]1CCCN1C(=O)[C@H](C)NC(=O)[C@H](CC(C)C)NC(=O)[C@H](C)N)[C@@H](C)O)C(=O)O` displayed an Alleles bound of 5.

Turning to `CC(C)C[C@H](NC(=O)[C@@H](N)CCCCN)C(=O)N[C@@H](CO)C(=O)N1CCC[C@H]1C(=O)N[C@@H](CO)C(=O)N1CCC[C@H]1C(=O)N[C@@H](CO)C(=O)N[C@@H](CO)C(=O)N[C@@H](CCCNC(=N)N)C(=O)N[C@H](C(=O)O)C(C)C`, the Alleles bound came out at 3.

Still in this test, the particulars now being: number of the five alleles A*0201, A*0202, A*0203, A*0206, A*6802 bound.
For `CC[C@H](C)[C@H](NC(=O)[C@H](Cc1ccccc1)NC(=O)[C@H](CCSC)NC(=O)[C@@H](NC(=O)[C@H](Cc1c[nH]cn1)NC(=O)[C@H](CC(N)=O)NC(=O)[C@H](Cc1ccccc1)NC(=O)[C@H](CC(C)C)NC(=O)[C@@H](N)CCC(N)=O)[C@@H](C)O)C(=O)O` [compound 64], the Alleles bound is given as 5.

`CC[C@H](C)[C@H](NC(=O)[C@H](CO)NC(=O)[C@H](CC(C)C)NC(=O)[C@H](CC(N)=O)NC(=O)[C@H](Cc1c[nH]c2ccccc12)NC(=O)[C@H](CCC(=O)O)NC(=O)[C@H](Cc1c[nH]c2ccccc12)NC(=O)[C@H](CO)NC(=O)[C@H](CC(C)C)NC(=O)[C@@H](N)Cc1c[nH]cn1)C(=O)O` [compound 189] came in with an Alleles bound of 4.

In the case of `CC(C)C[C@H](NC(=O)[C@@H](N)CCCCN)C(=O)N[C@@H](CO)C(=O)N1CCC[C@H]1C(=O)N[C@@H](CO)C(=O)N1CCC[C@H]1C(=O)N[C@@H](CO)C(=O)N[C@@H](CO)C(=O)N[C@@H](CCCNC(=N)N)C(=O)N[C@H](C(=O)O)C(C)C` [compound 36], the Alleles bound worked out at 3.

The compound `CSCC[C@H](NC(=O)[C@@H](N)CCC(=O)O)C(=O)N[C@@H](CCCNC(=N)N)C(=O)N[C@@H](CCC(N)=O)C(=O)N[C@@H](CCCCN)C(=O)N[C@@H](Cc1c[nH]cn1)C(=O)N[C@@H](CO)C(=O)N[C@@H](CCC(N)=O)C(=O)N[C@@H](C)C(=O)N[C@H](C(=O)O)C(C)C` [compound 184] showed an Alleles bound of 0.

For the compound `CC[C@H](C)[C@H](NC(=O)[C@H](CCCCN)NC(=O)[C@H](CC(C)C)NC(=O)[C@H](CC(=O)O)NC(=O)[C@H](CCCNC(=N)N)NC(=O)[C@H](CCC(=O)O)NC(=O)[C@H](CCC(=O)O)NC(=O)[C@H](CCC(=O)O)NC(=O)[C@H](CC(C)C)NC(=O)[C@@H](N)Cc1c[nH]cn1)C(=O)O` [compound 181], the Alleles bound turned out to be 0.

For the compound `CC(C)C[C@H](NC(=O)[C@H](CC(=O)O)NC(=O)[C@H](CCC(=O)O)NC(=O)[C@H](CC(C)C)NC(=O)[C@H](CC(=O)O)NC(=O)CNC(=O)[C@H](CCC(=O)O)NC(=O)[C@H](CC(C)C)NC(=O)[C@@H](N)CO)C(=O)O` [compound 44], the Alleles bound was 1.

`CC(C)C[C@H](NC(=O)[C@H](CCC(N)=O)NC(=O)[C@H](CCCNC(=N)N)NC(=O)[C@H](CCCCN)NC(=O)[C@H](CC(C)C)NC(=O)[C@H](CCC(N)=O)NC(=O)[C@H](CCCCN)NC(=O)[C@H](CC(C)C)NC(=O)[C@@H](N)CCCNC(=N)N)C(=O)O` [compound 176]: the Alleles bound was found to be 0.

Values taken from EP2710378B1, “METHOD TO PROGNOSE VIRAL INFECTION BY MEASURING T CELL RESPONSE OR AUTO-ANTIBODIES TO APOPTOTIC EPITOPES” (Università degli Studi di Roma "La Sapienza", priority 2011, dated 2012).
